Reference: patent US10266550B2, “Bacterial topoisomerase I inhibitors with antibacterial activity” (The Florida International University Board of Trustees, priority 2016, dated 2019)

Protein sequences, listed by entry. Tags and fused reporters are not part of them. Lines headed by an entry give the natural chain unless they say otherwise; changes in a name come on top.
UniProt P06612: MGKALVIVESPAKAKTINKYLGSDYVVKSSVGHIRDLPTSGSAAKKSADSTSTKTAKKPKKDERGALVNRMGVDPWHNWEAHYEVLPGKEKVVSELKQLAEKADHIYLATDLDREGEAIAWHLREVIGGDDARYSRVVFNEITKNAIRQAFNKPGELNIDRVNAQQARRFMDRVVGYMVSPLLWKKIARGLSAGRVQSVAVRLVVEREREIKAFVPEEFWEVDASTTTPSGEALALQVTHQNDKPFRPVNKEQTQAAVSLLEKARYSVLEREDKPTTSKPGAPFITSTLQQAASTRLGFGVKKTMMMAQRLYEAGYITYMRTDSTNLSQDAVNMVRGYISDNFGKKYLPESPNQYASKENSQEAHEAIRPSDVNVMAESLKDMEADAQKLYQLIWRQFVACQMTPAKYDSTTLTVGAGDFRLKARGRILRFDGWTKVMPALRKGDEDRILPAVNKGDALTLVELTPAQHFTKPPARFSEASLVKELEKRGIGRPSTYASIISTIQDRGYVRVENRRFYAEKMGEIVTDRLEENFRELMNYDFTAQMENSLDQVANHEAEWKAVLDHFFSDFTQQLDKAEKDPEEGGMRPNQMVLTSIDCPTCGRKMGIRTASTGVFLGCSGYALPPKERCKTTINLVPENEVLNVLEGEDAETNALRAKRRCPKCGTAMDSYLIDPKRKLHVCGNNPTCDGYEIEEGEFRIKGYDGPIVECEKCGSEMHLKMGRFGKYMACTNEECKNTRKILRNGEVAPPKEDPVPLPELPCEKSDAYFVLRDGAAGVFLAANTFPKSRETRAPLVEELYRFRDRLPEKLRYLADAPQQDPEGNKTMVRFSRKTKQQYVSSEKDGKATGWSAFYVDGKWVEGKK
UniProt P11387: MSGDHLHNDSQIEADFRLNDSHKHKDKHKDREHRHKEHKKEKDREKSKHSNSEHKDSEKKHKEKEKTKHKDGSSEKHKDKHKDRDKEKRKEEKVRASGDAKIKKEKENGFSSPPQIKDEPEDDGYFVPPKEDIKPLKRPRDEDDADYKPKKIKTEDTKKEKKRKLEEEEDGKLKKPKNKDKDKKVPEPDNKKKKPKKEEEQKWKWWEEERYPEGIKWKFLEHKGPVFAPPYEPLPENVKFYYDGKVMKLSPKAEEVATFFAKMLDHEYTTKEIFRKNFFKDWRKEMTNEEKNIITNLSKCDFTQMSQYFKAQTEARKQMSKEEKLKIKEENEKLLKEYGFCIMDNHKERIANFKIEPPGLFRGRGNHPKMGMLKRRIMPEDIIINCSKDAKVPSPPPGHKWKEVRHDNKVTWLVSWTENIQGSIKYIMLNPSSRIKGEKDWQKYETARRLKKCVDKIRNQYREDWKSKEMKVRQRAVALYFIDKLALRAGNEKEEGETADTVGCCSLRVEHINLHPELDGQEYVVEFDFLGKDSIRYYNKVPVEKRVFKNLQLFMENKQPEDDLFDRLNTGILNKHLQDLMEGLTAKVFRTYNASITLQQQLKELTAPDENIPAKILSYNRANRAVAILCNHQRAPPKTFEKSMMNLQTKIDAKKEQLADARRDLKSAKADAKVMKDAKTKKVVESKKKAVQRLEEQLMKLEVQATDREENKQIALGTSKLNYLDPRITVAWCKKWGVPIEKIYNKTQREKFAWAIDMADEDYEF
UniProt P11388: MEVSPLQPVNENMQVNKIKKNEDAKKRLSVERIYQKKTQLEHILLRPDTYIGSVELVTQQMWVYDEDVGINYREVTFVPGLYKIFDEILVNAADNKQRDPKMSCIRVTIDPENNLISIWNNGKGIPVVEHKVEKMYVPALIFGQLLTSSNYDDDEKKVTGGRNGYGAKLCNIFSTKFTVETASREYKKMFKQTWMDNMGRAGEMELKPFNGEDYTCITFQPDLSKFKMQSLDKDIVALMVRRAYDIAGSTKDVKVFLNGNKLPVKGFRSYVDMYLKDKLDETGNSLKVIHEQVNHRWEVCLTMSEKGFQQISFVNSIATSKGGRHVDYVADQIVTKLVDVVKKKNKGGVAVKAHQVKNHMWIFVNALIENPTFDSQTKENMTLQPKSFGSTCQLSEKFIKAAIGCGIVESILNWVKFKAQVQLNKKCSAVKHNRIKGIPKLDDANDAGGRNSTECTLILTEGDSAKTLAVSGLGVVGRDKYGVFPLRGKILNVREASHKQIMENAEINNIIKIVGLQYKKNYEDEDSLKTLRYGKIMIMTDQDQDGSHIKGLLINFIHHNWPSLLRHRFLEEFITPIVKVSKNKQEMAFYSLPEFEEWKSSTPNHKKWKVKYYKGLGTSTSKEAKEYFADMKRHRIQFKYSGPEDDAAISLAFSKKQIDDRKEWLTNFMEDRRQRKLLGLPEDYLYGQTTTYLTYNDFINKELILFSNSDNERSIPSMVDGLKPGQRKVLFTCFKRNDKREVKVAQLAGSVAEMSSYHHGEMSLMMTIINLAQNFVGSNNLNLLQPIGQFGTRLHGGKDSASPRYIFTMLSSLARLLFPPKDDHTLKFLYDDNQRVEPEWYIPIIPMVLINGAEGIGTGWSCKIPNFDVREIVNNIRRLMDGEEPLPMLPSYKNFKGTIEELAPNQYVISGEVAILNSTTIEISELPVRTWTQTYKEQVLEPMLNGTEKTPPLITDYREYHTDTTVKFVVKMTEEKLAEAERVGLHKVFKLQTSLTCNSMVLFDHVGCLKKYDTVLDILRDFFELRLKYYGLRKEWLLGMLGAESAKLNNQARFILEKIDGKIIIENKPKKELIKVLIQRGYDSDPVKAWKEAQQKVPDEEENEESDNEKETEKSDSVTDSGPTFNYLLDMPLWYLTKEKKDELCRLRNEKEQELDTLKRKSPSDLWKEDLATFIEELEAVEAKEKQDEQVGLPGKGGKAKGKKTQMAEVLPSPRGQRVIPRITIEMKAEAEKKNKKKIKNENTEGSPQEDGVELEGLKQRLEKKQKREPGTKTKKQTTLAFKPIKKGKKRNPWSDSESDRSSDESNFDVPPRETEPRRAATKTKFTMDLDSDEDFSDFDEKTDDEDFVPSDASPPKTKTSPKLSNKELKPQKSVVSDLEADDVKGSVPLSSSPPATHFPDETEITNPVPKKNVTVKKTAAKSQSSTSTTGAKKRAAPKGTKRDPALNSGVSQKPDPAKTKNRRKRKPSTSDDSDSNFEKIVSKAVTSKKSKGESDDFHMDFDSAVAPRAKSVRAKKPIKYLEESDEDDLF

Legend:
Type in all cases: biochemical
E. coli topoisomerase I = E. coli topoisomerase I (Escherichia coli (strain K12), UniProt P06612); conditions: experimental, converted from IC50
Description: (§1) Recombinant E. coli topoisomerase I and gyrase expressed in E. coli were purified as described previously.
E. coli Topoisomerase I Relaxation Activity Inhibition Assay
The relaxation activity of E. coli topoisomerase I was assayed in a buffer containing 10 mM Tris-HCl, pH 8.0, 50 mM NaCl, 0.1 mg/mL gelatin, and 0.5 mM MgCl2. Half microliter from the appropriate stock solutions of compounds dissolved in the solvent (DMSO) or the solvent alone (control) was mixed with 9.5 μL of the reaction buffer containing 10 ng of enzyme before the addition of 10 μL of reaction buffer containing 200 ng of supercoiled pBAD/Thio plasmid DNA purified by cesium chloride gradient as substrate. Following incubation at 37° C. for 30 min, the reactions were terminated by the addition of 4 μL of a stop buffer (50% glycerol, 50 mM EDTA, and 0.5% (v/v) bromophenol blue), and analyzed by agarose gel electrophoresis. The gels were stained in ethidium bromide and photographed under UV light.

Human topoisomerase I = Human topoisomerase I (Homo sapiens (Human), UniProt P11387); experiment: Human topoisomerase I relaxation inhibition assay; conditions: read-out: Topoisomerase inhibitory activity (IC50) Human topo I (type IB)
Description: Human topoisomerase I relaxation assays were carried out with 0.5 U of enzyme in reaction buffer supplied by the manufacturer. The enzyme was mixed with the indicated concentration of compound dissolved before 200 ng of supercoiled pBAD/Thio plasmid DNA was added in the same buffer, for a final volume of 20 μL. Following incubation at 37° C. for 30 minutes, the reactions were terminated with a buffer containing 5% SDS, 0.25% bromophenol blue, and 25% glycerol, and analyzed by agarose gel electrophoresis.
Human topoisomerase I and topoisomerase IIα were purchased from TopoGen (Buena vista, CO, USA).

E. coli DNA gyrase = E. coli DNA gyrase (Escherichia coli (strain K12), UniProt P0AES4+P0AES6); experiment: DNA gyrase supercoiling inhibition assay; conditions: supercoiling of relaxed DNA; read-out: Topoisomerase inhibitory activity (IC50) E. coli DNA gyrase (type IIA)
Description: as §1
DNA gyrase supercoiling assays were carried out by mixing the compounds and the enzyme in a similar manner as above (EcTopI relaxation inhibition assay) but in a gyrase assay buffer (35 mM Tris-HCl, 24 mM KCl, 4 mM MgCl2, 2 mM DTT, 1.75 mM ATP, 5 mM spermidine, 0.1 mg/mL BSA, 6.5% glycerol at pH 7.5), followed by the addition of 300 ng of relaxed covalently closed circular DNA (New England Biolabs, Ipswich, Mass., USA) to a final reaction volume of 20 μL. The samples were incubated at 37° C. for 30 minutes before being terminated by the addition of a buffer containing 5% SDS, 0.25% bromophenol blue, and 25% glycerol. The reactions were then analyzed by agarose gel electrophoresis.

Human topoisomerase IIα = Human topoisomerase IIα (Homo sapiens (Human), UniProt P11388); experiment: Human topoisomerase IIα decatenation inhibition assay; conditions: kDNA decatenation; read-out: Topoisomerase inhibitory activity (IC50) Human topo IIα (type IIA)
Description: Human topoisomerase I and topoisomerase IIα were purchased from TopoGen (Buena vista, CO, USA). […] The reactions were then analyzed by electrophoresis in 1% agarose gels containing […] ethidium bromide before being photographed under UV light.

SMILES	PIC50 (pIC50 = −log IC50) (E. coli topoisomerase I)	IC50 (Human topoisomerase I) [µM]	IC50 (E. coli DNA gyrase) [µM]	IC50 (Human topoisomerase IIα) [µM]
Nc1ccc2c(c1)Oc1c(NCCN3CCOCC3)c(F)cc3c(=O)c(C(=O)O)cn-2c13 [Compound 11h, 9-Amino-5-fluoro-6-((2-morpholinoethyl)amino)-3-oxo-3H-pyrido[3,2,1-kl]phenoxazine-2-carboxylic acid]	6.01			
Nc1ccc2c(c1)Oc1c(N3CC[C@@H](N)C3)c(F)cc3c(=O)c(C(=O)O)cn-2c13 [Compound 17b, (R)-9-amino-6-(3-aminopyrrolidin-1-yl)-5-fluoro-3-oxo-3H-pyrido[3,2,1-kl]phenoxazine-2-carboxylic acid]		3.9	3.9	
Nc1ccc2c(c1)Oc1c(N3CC[C@H](N)C3)c(F)cc3c(=O)c(C(=O)O)cn-2c13 [Compound 17a, (S)-9-amino-6-(3-aminopyrrolidin-1-yl)-S-fluoro-3-oxo-3H-pyrido[3,2,1-kl]phenoxazine-2-carboxylic acid]		3.9		0.97 to 195
